In patent US4136193A, “Anti-depressive substituted 1-dimethylaminopropyl-1-phenyl phthalans” (Kefalas A/S, priority 1976, dated 1979) one finds IC50 data, which are given here for one compound.

The assay has as its system 14C-5-HT-uptake in rabbit blood platelets. Briefly: Inhibition of 14C-5-HT-uptake in rabbit blood platelets in vitro. The format is cell-based. The note with it: Oryctolagus cuniculus, Platelet, pH 7.2, read-out: C14 5-HT uptake inhibitory concentration IC50. The procedure:
Two ml of rabbit platelet-enriched plasma, containing EDTA as an anticoagulant, were incubated with test compound and 2 ml of 0.05 M Na-P-buffer, pH 7.2, for 5 minutes at 37° C. […] The incubation was terminated by transferring the test tubes to an ice bath, and the platelets were isolated by centrifugation (~4000 g, 5 min., 4° C.). After draining, the platelets were gently washed with 4 ml of ice-cold saline, and the remaining radioactivity was determined. The uptake in the test samples was calculated in percent of the uptake in the control group and plotted against the concentration of test compound on semilogarithmic probability paper, from which the IC50-value was determined.

For the compound `CNCCC=C1c2ccccc2CCc2ccccc21` [Nortriptyline, reference compound], the IC50 was 3.3 µM.
